Earlier results, collected in US8685443B2, “Sequestering subunit and related compositions and methods” (Alpharma Pharmaceuticals LLC, priority 2002, dated 2014).

System: opioid receptors
Details: cited from earlier work

C=CCN1CC[C@]23c4c5ccc(O)c4O[C@H]2C(=O)CC[C@@]3(O)[C@H]1C5 [naloxone]
effect on morphine-like opioid agonist (0.4-0.8 mg intramuscularly or intravenously in man): prevent or promptly reverse the effects of morphine-like opioid agonist | block of the effect of heroin (one mg intravenously against 25 mg of heroin): block completely
